Results published in US11472799B2, “Serine threonine kinase (AKT) degradation / disruption compounds and methods of use” (Icahn School of Medicine at Mount Sinai, priority 2018, dated 2022).

System: AKT
Test: Western blot of AKT protein levels and downstream signaling in BT474 cells
Format: cell-based, human
Procedure: PC-3, U87MG, HCC1143, MDA-MB-231, MDA-MB-468, BT474 and MCF-7 cell lines were purchased from ATCC. Cell lines were regularly tested in the lab for mycoplasma. All cells were cultured at 37° C. and 5% CO2. PC-3, U87MG, MDA-MB-231, MCF-7 and BT474 cells were cultured in 1×DMEM (Corning, 10-013-CV) with 10% fetal bovine serum (Atlanta Biologicals S11150) and 1× Penicillin/Streptomycin. HCC1143 cells were cultured in RPMI (Corning, 10-040-CV) medium with 10% fetal bovine serum (Atlanta Biologicals S11150) and 1× Penicillin/Streptomycin. Cells were split using 0.05% or 0.25% trypsin (Corning 25-051-Cl or 25-053-Cl, respectively) before they reached full confluence and media was changed every 3-4 days. Cells were treated with compounds individually at different concentrations for 24 hrs. Cells were treated with DMSO, VHL, or PML alone as controls.
Cells were lysed in 2× sample buffer (125 mM Tris-HCl at pH 6.8, 10% βME, 2% SDS, 20% glycerol, 0.05% Bromophenol Blue, 8 M urea). Protein lysates were loaded into 4-12% Bis-Tris gels and resolved by electrophoresis. Samples were then blotted on PVDF membrane (Millipore IPVH00010) using the wet transfer technique (Invitrogen). Membranes were blocked in 5% milk-TBST for 1 hour, washed in TBST for 10 min, and incubated in primary antibody in 5% milk-TBST or 5% BSA-TBST at 4° C. for 16 h. Membranes were rinsed (3×6 min) in TBST and incubated in horseradish peroxidase-conjugated secondary antibodies in 5% milk-TBST for 1 hour and rinsed again in TBST (3×6 min). Membranes were visualized using the chemiluminescence system (Thermo 34080, 37075) on autoradiography film (Denville E3018). Primary Antibodies: R-actin (Sigma A5316), p-AKT (Ser473 CST-9721), total AKT (CST-9272), p-S6 (Ser240/244, CST-5364), p-PRAS40 (Thr246, CST-2997). Secondary Antibodies: Mouse (Thermo 31432), Rabbit (Thermo 31460).

For `CC(C)NC[C@@H](C(=O)N1CCN(c2ncnc3c2[C@H](C)C[C@H]3O)CC1)c1ccc(Cl)cc1` [GDC0068, reference compound], the AKT protein levels (1 μM, 5 μM, or 10 μM for 24 h) was “no effect”, the pAKT levels (1 μM, 5 μM, or 10 μM for 24 h) was “increased” and the AKT protein levels (0.01-1 μM for 24 h (FIG. 4A)) was “no effect”. The pAKT levels (0.01-1 μM for 24 h (FIG. 4A)) was “increased”.
